{
  "sequences": {"note": "By UniProt entry, the sequences of proteins in these tests, tags left out. Residues count along the entry.", "UniProt Q15046, 70-581 limits assumed": "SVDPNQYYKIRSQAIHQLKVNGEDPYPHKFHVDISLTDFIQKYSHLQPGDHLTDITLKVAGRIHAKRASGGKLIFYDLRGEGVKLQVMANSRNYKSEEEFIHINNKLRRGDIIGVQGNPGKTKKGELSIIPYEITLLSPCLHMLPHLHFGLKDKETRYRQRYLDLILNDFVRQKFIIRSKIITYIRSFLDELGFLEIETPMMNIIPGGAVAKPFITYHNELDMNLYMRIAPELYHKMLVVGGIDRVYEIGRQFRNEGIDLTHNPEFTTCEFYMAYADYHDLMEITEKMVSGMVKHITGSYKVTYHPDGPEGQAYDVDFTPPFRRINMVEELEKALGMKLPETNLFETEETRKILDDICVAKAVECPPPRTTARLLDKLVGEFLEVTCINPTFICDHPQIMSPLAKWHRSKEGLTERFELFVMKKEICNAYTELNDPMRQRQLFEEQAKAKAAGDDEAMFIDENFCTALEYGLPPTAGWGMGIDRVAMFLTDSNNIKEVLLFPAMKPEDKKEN", "UniProt Q9UM73, 1068-1410 limits assumed": "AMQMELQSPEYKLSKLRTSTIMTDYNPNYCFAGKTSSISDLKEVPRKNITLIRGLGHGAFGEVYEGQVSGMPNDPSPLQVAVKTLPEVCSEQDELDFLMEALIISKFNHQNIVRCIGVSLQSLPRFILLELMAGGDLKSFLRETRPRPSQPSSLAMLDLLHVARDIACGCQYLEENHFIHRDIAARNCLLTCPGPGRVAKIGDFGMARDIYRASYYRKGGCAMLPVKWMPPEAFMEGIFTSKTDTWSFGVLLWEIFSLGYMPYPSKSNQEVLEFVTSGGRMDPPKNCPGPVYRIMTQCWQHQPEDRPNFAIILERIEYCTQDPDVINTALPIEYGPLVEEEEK"},
  "source": "paper PMC11189516",
  "about": "“Structure-guided conversion from an anaplastic lymphoma kinase inhibitor into Plasmodium lysyl-tRNA synthetase selective inhibitors” (Communications Biology, 2024)",
  "key": {"HsLysRS": {"target": "HsLysRS (Homo sapiens, UniProt Q15046)", "test": "ATP hydrolysis assay (Kinase-Glo) on HsLysRS", "type": "biochemical", "procedure": "The ATP hydrolysis assays were based on Kinase-Glo luminescent Kit (Promega). The experiment was carried out in Corning 384-well white flat bottom microplates. The buffer in the reaction contains 25 mM Hepes pH 7.4, 140 mM NaCl, 40 mM MgCl2, 30 mM KCl, 1 mM TCEP, 0.1 mg·mL^−1 BSA, and 0.004% Tween-20. The compounds were diluted to different concentrations with a 5-fold gradient.\nFor LysRS assays, DMSO was added into negative control wells and L-lysine was removed in positive control wells. 100 nM LysRS in 2.5 μL Hepes buffer was mixed with compounds and incubated for 10 min. Then 5 μL substrate mixture (2 μM ATP, 10 μM L-lysine and 31 nM pyrophosphatase) was added to start the reaction at 37 °C and incubated for 6 h.\nWhen the reaction reaches the planned time, 10 μL diluted Kinase-Glo reagent (1/50 diluted with a buffer containing 50 mM Tris pH 7.5 and 5% glycerol) was added and incubated for 15 min. Luminescence was measured on the Magellan plate reader (Tecan) and nonlinear regression was performed with Prism (GraphPad)."}, "ALK": {"target": "ALK (Homo sapiens, UniProt Q9UM73)", "test": "ATP hydrolysis assay (Kinase-Glo) on ALK"}},
  "data": [
    {"smiles": "COc1ccc(OC)c(Nc2ncnc(Nc3ccccc3S(=O)(=O)CCCCNC(=O)[C@@H](N)CCCCN)n2)c1", "values": [
      {"measurement": "IC50 against HsLysRS", "setting": "HsLysRS", "value": 26, "unit": "µM"},
      {"measurement": "IC50", "setting": "HsLysRS; read-out: IC50 against HsLysRS", "value": 11, "unit": "µM"},
      {"measurement": "IC50 against ALK", "setting": "ALK", "value": "> 170", "unit": "µM"},
      {"measurement": "IC50", "setting": "ALK; read-out: IC50 against ALK", "value": "> 79", "unit": "µM"}
    ]}
  ]
}
